One block for each compound: values may come before it.
Legend:
ASK1 = ASK1 (Homo sapiens, UniProt Q99683); assay: DSF against ASK1 (selectivity panel of MAPK cascade members); details: difference between the TAOK2 ΔTm and that of ASK1, DSF
Procedure: (§1) Differential scanning fluorimetry binding assays of selected compounds against TAOK2 were conducted to measure strength of compound binding. A solution of 5 μM TAOK2, 50 mM MgCl2, 50 mM HEPES pH 7.5, and 2.5x SyproOrange(Life Technologies) was made. Compound was added to a final concentration of 1 μM. 25 μl of the reaction solution was added to the wells of a Biorad Multiplate 96 wellclear PCR plate. The plate was covered with a Biorad Microseal ‘B’ seal. Plates were read in a Biorad CFX96 Real-Time PCR system. The temperature was increased from 4° C. to 80° C., with fluorescence measurements being taken every 0.5° C. in the 6-FAM Fluorescein channel. The fluorescence response to heat curve was fit to a binding isotherm in order to determine the inflection point, which was taken as the melt temperature (Tm).
(§2) The difference between the TAOK2 ΔTm and that of p38 and ASK1 was determined. […] The majority of the other compounds were also preferentially inhibitory toward TAOK2. Of the 13 compounds, SW034538, SW172006 and SW083688 were cross-verified for selectivity by performing a specificity screen against 45 kinases commercially at Eurofins Cerep, Inc. (FIG. 3).

Amino acid sequences for entries named in this document (tags omitted).
UniProt Q99683, whole entry: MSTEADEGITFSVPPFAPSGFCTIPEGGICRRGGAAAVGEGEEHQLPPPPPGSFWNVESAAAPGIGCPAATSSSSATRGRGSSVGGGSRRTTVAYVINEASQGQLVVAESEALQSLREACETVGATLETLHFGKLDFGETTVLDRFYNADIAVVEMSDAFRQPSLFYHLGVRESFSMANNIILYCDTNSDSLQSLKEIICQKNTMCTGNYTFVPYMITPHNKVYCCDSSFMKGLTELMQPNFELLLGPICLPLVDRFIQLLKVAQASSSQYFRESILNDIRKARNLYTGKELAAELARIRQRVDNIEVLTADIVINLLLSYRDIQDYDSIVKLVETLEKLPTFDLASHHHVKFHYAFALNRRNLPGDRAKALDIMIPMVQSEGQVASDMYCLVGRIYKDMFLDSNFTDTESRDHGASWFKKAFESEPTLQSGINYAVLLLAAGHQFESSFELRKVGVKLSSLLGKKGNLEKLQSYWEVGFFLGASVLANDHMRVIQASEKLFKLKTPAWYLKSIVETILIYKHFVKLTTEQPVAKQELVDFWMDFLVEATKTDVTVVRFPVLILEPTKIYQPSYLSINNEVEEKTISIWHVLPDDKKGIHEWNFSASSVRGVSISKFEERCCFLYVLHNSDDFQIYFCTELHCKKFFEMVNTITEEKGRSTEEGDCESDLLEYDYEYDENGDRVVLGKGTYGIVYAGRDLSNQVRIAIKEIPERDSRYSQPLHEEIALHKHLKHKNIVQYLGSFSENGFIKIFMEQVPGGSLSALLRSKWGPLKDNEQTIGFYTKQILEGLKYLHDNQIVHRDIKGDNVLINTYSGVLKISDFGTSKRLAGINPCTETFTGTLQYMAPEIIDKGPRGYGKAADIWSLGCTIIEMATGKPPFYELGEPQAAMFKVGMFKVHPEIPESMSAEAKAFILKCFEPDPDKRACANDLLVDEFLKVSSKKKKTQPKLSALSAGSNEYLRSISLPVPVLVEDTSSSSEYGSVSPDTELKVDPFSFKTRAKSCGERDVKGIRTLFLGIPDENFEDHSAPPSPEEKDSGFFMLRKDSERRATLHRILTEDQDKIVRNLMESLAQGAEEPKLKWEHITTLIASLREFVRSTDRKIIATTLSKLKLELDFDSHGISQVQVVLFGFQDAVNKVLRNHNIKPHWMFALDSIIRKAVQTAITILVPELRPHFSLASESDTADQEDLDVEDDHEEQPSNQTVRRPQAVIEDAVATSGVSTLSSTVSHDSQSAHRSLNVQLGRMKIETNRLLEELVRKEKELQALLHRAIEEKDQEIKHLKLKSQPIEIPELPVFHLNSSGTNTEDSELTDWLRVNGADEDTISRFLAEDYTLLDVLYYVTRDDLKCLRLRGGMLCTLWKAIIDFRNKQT
UniProt Q16539, whole entry: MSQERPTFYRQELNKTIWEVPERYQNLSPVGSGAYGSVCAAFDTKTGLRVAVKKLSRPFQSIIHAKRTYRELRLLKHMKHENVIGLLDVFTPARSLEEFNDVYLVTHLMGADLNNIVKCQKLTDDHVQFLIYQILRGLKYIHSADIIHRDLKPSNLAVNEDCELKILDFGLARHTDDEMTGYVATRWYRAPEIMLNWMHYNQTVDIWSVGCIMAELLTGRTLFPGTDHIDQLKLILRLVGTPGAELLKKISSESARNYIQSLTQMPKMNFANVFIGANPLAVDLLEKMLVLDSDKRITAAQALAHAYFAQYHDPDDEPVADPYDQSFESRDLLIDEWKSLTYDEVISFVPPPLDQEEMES

p38 = p38 (Homo sapiens, UniProt Q16539); assay: DSF against p38 (selectivity panel of MAPK cascade members); details: difference between the TAOK2 ΔTm and that of p38, DSF
Procedure: as §1, §2

U2OS GFP-LC3 cells = assay: p62 accumulation by western blot (autophagic flux); details: 50 μM, 24 hours
Procedure: FIG. 4A) U2OS cells stably expressing the GFP-LC3 fusion transgene were treated with the indicated compound at 50 μM concentration for 24 hours before GFP fluorescence was measured by flow cytometry. The median fluorescent value from 20,000 cells per condition was normalized to that of vehicle alone (DMSO) within a given experiment. The mean+SD of >2 independent experiments is shown. ****, p<0.0001; ***, p<0.001; **, p<0.01; ns, p>0.05 versus vehicle alone (DMSO) by unpaired t test. FIG. 4B) TAOK2 inhibitors induce accumulation of p62. U2OS GFP-LC3 cells were treated with the indicated compounds at 50 μM concentration, or DMSO alone, for 24 hours. Lysates were collected and analyzed by western blot using the indicated antibodies. XPB was used as a loading control.
U2OS GFP-LC3 cells were seeded in 6-well plates at 150,000 cells per well in Dulbecco's Modified Eagle Medium supplemented with 10% fetal bovine serum. Twenty-four hours after seeding, the indicated compounds were added to a final concentration of 50 µM, or an equivalent volume of vehicle alone (DMSO) was added. Twenty-four hours after compound addition, cells were rinsed twice with PBS and then lysed in 2× sample buffer. […] Membranes were then washed, incubated with secondary antibody in blocking solution, washed again, and analyzed by enhanced chemiluminescence followed by exposure to film. […]

ΔΔTm (ASK1) (ASK1): −0.0 °C
Structure (SMILES): c1cc2[nH]c3c(c2c2nonc12)CCCC3

ΔΔTm (p38) (p38): 0.0 °C
Structure (SMILES): Cc1ccc(C(=O)CSc2nnc(-c3ccncc3)[nH]2)c(C)c1

Structure (SMILES): O=C(Nc1cccc(-c2nc3ccccc3c(=O)o2)c1)c1ccccc1Br
abundance of p62 (U2OS GFP-LC3 cells): increased the abundance of p62

Source: patent US20170340636A1, “COMPOSITIONS AND METHODS FOR INHIBITION OF AUTOPHAGY” (Board of Regents, The University of Texas System, priority 2016, published 2017)
